How the values were obtained:
[1] = format: in vivo
Description: The following example describes a randomized, active controlled trial of subjects with iron deficiency anemia and non-dialysis dependent chronic kidney disease and elevated cardiovascular risk who received either FCM (750 mg on Day 0 and Day 7 for a total of 1500 mg) or iron sucrose (Venofer; 200 mg on 5 visits between Days 0 and 14 for a total of 1000 mg). Study visits were on Days 0, 3, 7, 10, 14, 28, 56, and 120. A phone assessment occurred on Day 90. The primary objective was to estimate the cardiovascular safety and efficacy FCM compared to Venofer in subjects who had iron deficiency anemia (IDA) and impaired renal function.
VIT-30 was a Phase 3, multicenter, randomized, active-controlled, open-label study that compared the safety and efficacy of IV FCM vs. IV Venofer in subjects with IDA and impaired renal function. […]
Safety assessments were summarized for the Safety Population unless stated otherwise. Subjects were analyzed under the treatment actually received.
The difference between FCM and Venofer in the proportion of subjects experiencing the primary composite endpoint was assessed with a 95% 2-sided CI constructed with the normal approximation to the binomial with continuity correction. […] The precision of the estimated treatment group difference was measured by the width of the 95% CI. […]

[2] = Example 3 trial: adverse events; format: in vivo, human
Description: (§1) The following example describes an open-label, multicenter, 5-week, prospective, randomized trial that compared single equivalent doses of intravenous elemental iron in the form of FCM versus iron dextran in women with iron deficiency anemia due to heavy uterine bleeding. Study visits were on Days 0 (when iron was infused), 1 (24 hours after iron infusion), 7, 14, and 35. The primary objectives were to determine the effect of iron deficiency on cFGF23 and iFGF23 levels and the effect of intravenous iron on iFGF23 and cFGF23 levels.
Randomization occurred centrally via a fax-based system. Subjects who were randomized to FCM (Luitpold Pharmaceuticals Inc., Shirley N.Y.) received an intravenous infusion of 15 mg/kg up to a maximum of 1000 mg diluted in 250 cc normal saline solution. The complete dose was infused over 15 minutes on day 0. Subjects who were randomized to iron dextran received Dexferrum® (Luitpold Pharmaceuticals Inc., Shirley N.Y.) on day 0 using a standard protocol. An initial test dose of 25 mg was administered slowly over 5 minutes.
Laboratory testing of blood and three-hour urine collections was performed at the screening visit and on study days 0 (when iron was infused), 1 (24 hours after iron infusion), 7, 14, and 35 (see e.g., FIG. 2A). Any subject who experienced a reduction in serum phosphate below the normal range after day 0 underwent additional phosphate measurements at 14 day intervals following day 35 until the level returned to the normal reference range. Safety evaluations of all subjects included ascertainment of adverse events, physical examinations at all study visits, and laboratory assessments. Any subject who withdrew from the study received a follow-up phone call to ascertain adverse events 30 days after they received study drug.
The pre-specified primary endpoints were changes in blood and urine markers of phosphate and bone metabolism among the evaluable population, defined as those subjects with baseline and at least one post-randomization set of FGF23 and blood and urinary phosphate levels. Secondary endpoints included the proportion of subjects achieving a hemoglobin increase […] anytime between baseline and day 35, and the change from baseline to highest hemoglobin, ferritin, and TSAT anytime during the 35-day study period. Additional safety endpoints included incidence, severity, and seriousness of adverse events, and incidence of treatment-emergent abnormal clinical laboratory values in the safety population, defined as all subjects who received the study drug regardless of subsequent laboratory testing.
The 2-sided, 95% confidence interval for the absolute difference in the proportions between the FCM and iron dextran groups was calculated to test the secondary endpoint of whether the proportion of subjects who achieved a hemoglobin increase ≧2 g/dL at any time after the baseline visit differed by iron preparation. […] The number and proportion of subjects who experienced an adverse event in the safety population was summarized and rates between the iron treatment groups using Fisher's exact test were compared for the categorical safety endpoints. Analyses were conducted using SAS version 9 (Cary, N.C.). All statistical tests were 2-tailed and p values<0.05 were considered statistically significant.

[3] = tested on: serum phosphate, urinary fractional excretion of phosphate; experiment: Example 3 trial: serum and urinary phosphate; parameters: species or system human; details: in vivo
Description: as §1
Randomization occurred centrally via a fax-based system. […]
Blood and urine samples were sent to a central laboratory for analysis (Covance Central Laboratory Service, Indianapolis, Ind.). Hemoglobin, blood counts, iron indices, electrolytes, and serum and urinary phosphate and creatinine were measured with standard, automated, multi-analyte techniques. Urinary fractional excretion of phosphate (FEPi) was calculated from the three-hour, morning urine collections as urinary phosphate x serum creatinine/serum phosphate x urinary creatinine. Serum levels of 25-hydroxyvitamin D and 1,25-dihydroxyvitamin D were measured in duplicate by radioimmunoassay (DiaSorin, Stillwater, Minn.) with intra-assay coefficients of variation (CV)<11.6%. […]

| Substance | hazard ratio (FCM versus Venofer) for the primary composite safety endpoint ([1]; Cox proportional hazards) | subjects with 1 or more adjudicated events comprising the primary composite safety endpoint ([1]; Safety Population, through Day 120) [%] | subjects who experienced one or more adverse events [2] [%] | subjects with adverse events considered to be related to study drug [2] [%] | adverse event: reduced serum phosphate noted by subjects' physicians ([2]; p=0.008 between groups) [%] | Discontinuation from study due to adverse event, n (%) ([2]; safety population) | Patients experiencing one or more adverse events related to study drug, n (%) ([2]; safety population) | Patients experiencing one or more adverse events, n (%) ([2]; safety population) | Patients experiencing one or more serious adverse events, n (%) ([2]; safety population) | subjects in whom serum phosphate decreased to <2.0 mg/dL [3] |
| --- | --- | --- | --- | --- | --- | --- | --- | --- | --- | --- |
| polynuclear iron (III)-hydroxide 4(R)-(poly-(1→4)-O-α-glucopyranosyl)-oxy-2(R),3(S),5(R),6-tetrahydroxy-hexanoate [FCM] | 1.143 | 13.71 |  |  |  |  |  |  |  |  |
| iron dextran [reference compound] |  |  | 60 | 37 | 3 | 2 (6%) n (%) | 11 (37%) n (%) | 18 (60%) n (%) | 0 (0%) n (%) | none |

From patent US20140162974A1, “METHODS FOR MODULATION OF PHOSPHORUS AND FGF23” (Luitpold Pharmaceuticals, Inc., priority 2012, published 2014)
